The values below come from US8604016B2, “Heterocyclic inhibitors of glutaminase” (Calithera Biosciences Inc., priority 2011, dated 2013).

By UniProt entry, the sequences of proteins in these tests, tags left out. Residues count along the entry.
UniProt O94925, 55-669 limits assumed: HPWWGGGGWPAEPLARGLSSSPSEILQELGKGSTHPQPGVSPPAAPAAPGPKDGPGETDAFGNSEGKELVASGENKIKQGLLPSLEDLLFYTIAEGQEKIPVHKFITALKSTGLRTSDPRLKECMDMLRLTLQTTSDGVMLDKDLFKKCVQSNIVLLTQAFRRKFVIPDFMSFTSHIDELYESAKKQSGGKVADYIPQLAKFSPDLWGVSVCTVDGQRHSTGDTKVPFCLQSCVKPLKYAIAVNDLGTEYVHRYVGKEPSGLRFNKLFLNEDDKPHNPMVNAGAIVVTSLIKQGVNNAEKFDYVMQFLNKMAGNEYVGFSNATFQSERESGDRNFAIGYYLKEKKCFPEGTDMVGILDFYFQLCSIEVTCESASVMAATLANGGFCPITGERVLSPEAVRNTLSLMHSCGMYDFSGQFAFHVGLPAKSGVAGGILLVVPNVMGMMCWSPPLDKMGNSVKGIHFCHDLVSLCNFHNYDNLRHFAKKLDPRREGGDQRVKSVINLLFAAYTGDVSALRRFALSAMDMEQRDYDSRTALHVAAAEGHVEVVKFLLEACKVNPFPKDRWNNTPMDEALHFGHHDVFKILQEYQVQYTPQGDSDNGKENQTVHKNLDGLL

This assay addresses recombinant form of Glutaminase 1 (GAC) (Homo sapiens, UniProt O94925). As to the kind of experiment: Recombinant Enzyme Assay (GAC coupled to GDH, NADH absorbance, no preincubation). The assay is classed as biochemical. Particulars: read-out: GAC Delta N2 IC50 no preinc. On the procedure: Enzymatic reaction was started with the addition of 50 μL of enzyme solution (50 mM Tris-HCl pH 8.0, 0.2 mM EDTA, 150 mM K2HPO4, 0.1 mg/ml BSA, 1 mM DTT, 10 ppm antifoam, 4 units/ml GDH, 4 mM adenosine diphosphate, and 4 nM GAC) and read in a Molecular Devices M5 plate reader at 20° C. The plate reader was configured to read absorbance (λ=340 nm) in kinetic mode for 15 minutes. Data was recorded as milli-absorbance units per minute and slopes were compared to a control compound and a DMSO-only control on the same plate. Compounds with slopes less than the DMSO control were considered inhibitors and plate variability was assessed using the control compound.

For `N[C@@H](C(=O)Nc1nnc(CCCCc2nnc(NC(=O)[C@H](N)c3ccccc3)s2)s1)c1ccccc1` [Compound 186], the IC50 is 3.1 µM.
